Source: ChEMBL document CHEMBL5360537, “From lead to clinic: A review of the structural design of P2X7R antagonists” (Eur J Med Chem, 2023)

Target: T1, P2X purinoceptor 7 (Rattus norvegicus, UniProt Q64663)
T1 sequence (Q64663 whole entry): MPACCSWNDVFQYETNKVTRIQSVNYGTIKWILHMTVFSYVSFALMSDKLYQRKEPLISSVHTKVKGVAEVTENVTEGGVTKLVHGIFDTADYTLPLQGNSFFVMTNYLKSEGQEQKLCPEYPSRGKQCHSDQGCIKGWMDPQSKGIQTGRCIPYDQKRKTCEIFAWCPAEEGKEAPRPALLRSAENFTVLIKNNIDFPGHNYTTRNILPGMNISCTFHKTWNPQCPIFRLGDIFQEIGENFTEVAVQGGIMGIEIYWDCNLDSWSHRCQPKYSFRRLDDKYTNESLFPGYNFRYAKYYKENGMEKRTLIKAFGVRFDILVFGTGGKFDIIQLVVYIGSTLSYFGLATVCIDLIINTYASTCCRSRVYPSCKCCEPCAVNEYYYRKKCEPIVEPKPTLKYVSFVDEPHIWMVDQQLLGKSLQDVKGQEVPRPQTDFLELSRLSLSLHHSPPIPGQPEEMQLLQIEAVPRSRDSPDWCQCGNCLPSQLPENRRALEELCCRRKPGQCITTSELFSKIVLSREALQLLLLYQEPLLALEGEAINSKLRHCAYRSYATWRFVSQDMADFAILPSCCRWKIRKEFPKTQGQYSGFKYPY
Experiment: Inhibition of recombinant rat P2X7 receptor by FLIPR assay

Structure (SMILES): O=C(c1cccc(C(F)(F)F)c1Cl)N1[C@H]2CC[C@@H]1c1nnc(-c3ncc(F)cn3)n1C2
- IC50: 3.98 µM
